Data on one substance can be found in US6805863B2, “Methods of modulating immune coagulation” (Trillium Therapeutics Inc., priority 1997, dated 2004).

The subject of this assay is 125I-prothrombin. The assay can be described thus: Prothrombin cleavage assay. The class given is biochemical. The note with it: FIG. 22. The procedure: To determine if the expressed fusion protein acts as a direct prothrombinase, the prothrombin cleavage assay was performed as previously described (Schwartz et al., 1982). 125I-prothrombin was incubated with High 5 cells, both infected or uninfected with the recombinant virus. Purified mfg12 fusion protein was also studied to determine its ability to cleave prothrombin. Human Factor Xa in the presence of Russell's viper venom (RVV) was used as a positive control. Samples were run on 10% SDS-PAGE and analyzed by autoradiography for 125I-prothrombin and their cleavage products.

For “human factor X: positive control of the prothrombin cleavage assay [reference compound]”, the “cleavage of 125I-prothrombin (SDS-PAGE autoradiography)” value is “cleavage products corresponding to known derivatives of prothrombin”.
